Values quoted from earlier work in patent US20050136043A1, “TGFbeta signaling inhibitors” (Ludwig Institute for Cancer Research, priority 2003, published 2005).

Protein sequences, listed by entry. Tags and fused reporters are not part of them.
UniProt Q16539, whole entry: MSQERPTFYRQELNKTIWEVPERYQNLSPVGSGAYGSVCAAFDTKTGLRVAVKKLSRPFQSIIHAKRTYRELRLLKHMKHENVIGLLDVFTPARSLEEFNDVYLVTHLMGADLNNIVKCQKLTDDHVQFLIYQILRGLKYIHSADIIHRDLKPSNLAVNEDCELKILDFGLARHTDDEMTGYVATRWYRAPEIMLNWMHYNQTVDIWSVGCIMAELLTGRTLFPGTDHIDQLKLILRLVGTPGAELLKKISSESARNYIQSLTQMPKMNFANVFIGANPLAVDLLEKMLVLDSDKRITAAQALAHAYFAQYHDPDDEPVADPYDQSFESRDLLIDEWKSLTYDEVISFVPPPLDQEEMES

Biological target: p38 MAP (Homo sapiens, UniProt Q16539)
Details: cited from earlier work

CCc1nc(-c2ccc(OC)cc2)[nH]c1-c1ccncc1 [SB202474]
Effect on p38 kinase: does not affect
